Source: ChEMBL document CHEMBL4024773, “The Magic of Crystal Structure-Based Inhibitor Optimization: Development of a Butyrylcholinesterase Inhibitor with Picomolar Affinity and in Vivo Activity” (J Med Chem, 2018)

Amino acid sequences for entries named in this document (tags omitted).
UniProt P06276, whole entry: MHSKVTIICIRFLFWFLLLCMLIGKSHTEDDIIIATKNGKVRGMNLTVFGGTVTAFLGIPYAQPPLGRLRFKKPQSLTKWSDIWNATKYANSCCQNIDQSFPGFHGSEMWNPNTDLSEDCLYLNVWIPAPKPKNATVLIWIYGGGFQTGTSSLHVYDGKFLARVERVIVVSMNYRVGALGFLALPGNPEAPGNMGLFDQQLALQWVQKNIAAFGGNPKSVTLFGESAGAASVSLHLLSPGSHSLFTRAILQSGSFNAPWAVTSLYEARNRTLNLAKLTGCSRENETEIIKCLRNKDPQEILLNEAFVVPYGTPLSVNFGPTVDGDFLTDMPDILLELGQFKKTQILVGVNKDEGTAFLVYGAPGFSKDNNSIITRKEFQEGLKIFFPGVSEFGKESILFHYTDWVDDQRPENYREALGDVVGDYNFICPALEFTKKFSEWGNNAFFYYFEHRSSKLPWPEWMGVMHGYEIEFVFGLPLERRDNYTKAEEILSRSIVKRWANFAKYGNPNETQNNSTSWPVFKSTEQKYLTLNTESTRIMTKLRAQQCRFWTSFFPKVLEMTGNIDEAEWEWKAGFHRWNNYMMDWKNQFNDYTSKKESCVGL

Molecular target: Cholinesterase (Homo sapiens, UniProt P06276)

## CCN(C)C(=O)Oc1cccc([C@H](C)N(C)C)c1 [RIVASTIGMINE]
  IC50: 370 nM
